# Experimental data taken from patent US12410192B2, “Compound for inhibiting and inducing degradation of EGFR kinase” (BEIJING TIDE PHARMACEUTICAL CO., LTD., priority 2019, dated 2025).
# Molecular target: EGFR^L858R/T790M/C797S (Homo sapiens (Human), UniProt P00533, C797S/L858R/T790M)
# Experiment: Assay of inhibitory activity on EGFR (HTRF kinase assay)
# Format: biochemical
# Conditions: mutant EGFR kinase
# Procedure: Formula of inhibition rate (%): […]
# The nonlinear regression curve (dose response-variable slope) between the value of inhibition rate (%) and the logarithm of compound concentration was fitted with graphpad prism 8.0, the effect dose curve of compound was drawn, and IC50 value was calculated.
substance,measurement,value
"3-(1-oxo-4-(4-(4-(((R,E)-1^1,2^6,7-trimethyl-3-oxo-5^2,5^3-dihydro-1^1H,5^1H-11-oxa-4-aza-5 (2,1)-benzo[d]imidazole-2 (2,4)-pyridine-1 (4,5)-pyrazolecyclododecan-5^6-yl)methyl)piperazin-1-yl)butyl)isoindol-2-yl)piperidine-2,6-dione [Compound D1]",IC50,4.53 nM
"3-(1-oxo-4-(5-(4-(((R,E)-1^1,2^6,7-trimethyl-3-oxo-5^2,5^3-dihydro-1^1H,5^1H-11-oxa-4-aza-5 (2,1)-benzo[d]imidazole-2 (2,4)-pyridine-1 (4,5)-pyrazolecyclododecan-5^6-yl)methyl)piperazin-1-yl) pent-1-yn-1-yl)isoindol-2-yl)piperidine-2,6-dione [Compound D2]",IC50,3.84 nM
